Source: PubChem (National Center for Advancing Translational Sciences (NCATS))
Nrf2 inh – Nrf2 pathway inhibition | A549 ARE-Fluc reporter, luciferase luminescence, 18-24 h | Potency, µM (highest dose often 46 µM), most hits filed as inhibitors | 360,000 tested, 2.1% active; note: nearly all actives have a fitted effect of over 60% in size
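Cells were seeded and rested 2 h, then exposed to compounds for 18-24 h. CellTiter-Fluor was read first as a viability measure. BugLite was added 15 min before the final luminescent read of ARE-luciferase activity in A549 cells.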
Rango release inh – inhibitors of RanGTP-induced Rango-importin beta complex dissociation; Biochemical FRET Rango-importin beta, RanGTP-induced dissociation; 340,000 tested, 0.071% active; Potency, µM (highest dose often 46.1 µM); calls by dose curve; note: nearly all actives have a fitted effect of over 45% in size
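Recombinant Rango FRET biosensor (EYFP–snurportin 1 IBB–cerulean CFP10) at 0.1 uM premixed with 0.25 uM importin beta in PBS, 1 mM DTT, 0.02% Tween-20, 0.1% BSA. Compound added 5 min; RanGTP-RCC1 (0.6 uM Ran, 2 mM GTP, 0.2 uM RCC1) then triggers release, read at 45 min.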
Rango-impB inh – Rango-importin beta binding inhibition; Q14974; Rango CFP/YFP FRET sensor + importin beta, 45 min; Potency, µM (top dose mostly 92.2 µM); 340,000 tested, 0.031% active; calls by dose curve; note: nearly all actives have a fitted effect of over 15% in size
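Inhibition scored from the CFP 486 nm/YFP 530 nm FRET ratio 45 min after adding 0.125 microM importin beta to 50 nM Rango biosensor preincubated 5 min with compound (room temperature, PBS with DTT, Tween-20, BSA). No-importin wells as positive control.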
A549 tox-1 – counter-screen for Nrf2 inhibitors: cytotoxicity in A549 cells. Potency, µM (doses to about 46 µM), hits mostly inhibitors. 390,000 tested, 0.16% active. AID 504648. A549 ARE-Fluc cells, CellTiter-Fluor viability, 18-24 h
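Cytotoxicity counterscreen: CellTiter-Fluor fluorescence was measured in A549 ARE_Fluc cells after 18-24 h of compound exposure in a concentration series. The subsequent BugLite luminescent read reports ARE-luciferase activity.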
Nrf2 ARE act – Nrf2 pathway activation; AREc32 ARE-luciferase reporter (MCF7-derived line), luminescence, 24 h; Potency, µM (series often up to 46.1 µM), hits mostly activators; 410,000 tested, 0.31% active; note: nearly all actives have a fitted effect of over 65% in size
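ARE-driven firefly luciferase activity in AREc32 cells measured after a 24 hr compound exposure at 37 deg C, using Steady-Glo reagent and a 30 min room-temperature hold.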
FLuc enzyme inh – counter-screen for Nrf2 inhibitors: firefly luciferase enzyme inhibition; shares compounds with Nrf2 inh; purified firefly luciferase, luminescence inhibition; Potency, µM (doses to about 57.5 µM), usual class: inhibitors; 1,400 tested, 4% active; note: nearly all actives have a fitted effect of over 65% in size
A549 tox-2 – A549 cytotoxicity, Nrf2 inhibitor counterscreen | shares compounds with Nrf2 inh | A549 ARE-Fluc cells, cytotoxicity counterscreen | Potency, µM (titrated, usually from 46.1 µM), hits mostly inhibitors | 1,400 tested, 2% active | AID 720523;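 note: cells exposed to compounds for 18 to 24 hours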
ARE-Fluc inh – Nrf2 inhibition confirmed, A549 ARE-luciferase. shares compounds with Nrf2 inh. A549 ARE-firefly luciferase reporter, luminescence. Potency, µM (titrated, usually from 46.1 µM), hits mostly inhibitors. 1,400 tested, 74% active. AID 720524; note: nearly all actives have a fitted effect of over 65% in size
Numbers stand for hits; – = inactive; ? = inconclusive; · = no result shown; [ ] = remark or other dose. Shown are actives, neighbours in structure and some others; about 2.3% of the full set was active somewhere. Unless noted, calls come from the whole dose curve; as a rule, active = well fitted curve in the direction sought with a large enough effect; inconclusive = small, poorly fitted or top-dose-only effect, or another doubt; inactive = no such curve, though single readings can be large; an effect the other way counts as inactive or inconclusive.

SMILES	Nrf2 inh	Rango release inh	Rango-impB inh	A549 tox-1	Nrf2 ARE act	FLuc enzyme inh	A549 tox-2	ARE-Fluc inh
Cc1ccc(S(=O)(=O)NCc2ccc(C(=O)N3CCN(c4ccc([N+](=O)[O-])cc4)CC3)cc2)cc1	5.17µM	–	?	?	–	–	–	5.8µM
O=C(c1cc2c(Cl)nc3ccccc3c2s1)N1CCCCC1	–	·	·	–	–	·	·	·
CCOC(=O)C1CCCN(C(=O)c2cc3c(Cl)nc4ccccc4c3s2)C1 (centres undefined)	5.8µM	·	·	–	–	–	–	8.2µM
Cc1ccc(-c2cc3cccc[n+]3cc2-c2ccc(C)cc2)cc1	3.26µM	?	?	–	–	–	–	2.59µM
Cc1ccncc1CNC(=O)c1ccccc1	–	–	?	–	–	·	·	·
COc1ccccc1NC(=O)c1ccccc1NC(=O)c1ccccn1	–	–	–	–	–	·	·	·
C/C(=N\NC(=O)c1ccc(Cl)c(Cl)c1)c1ccccn1	2.31µM	–	–	?	–	?	–	·
COc1ccc(C(=O)N/N=C(\C)c2ccccn2)cc1OC	5.17µM	–	–	?	?	–	–	·
C/C(=N\NC(=O)c1ccccc1Cl)c1ccccn1	?	–	–	?	–	·	·	·
CCOc1ccc(OCc2ccc(C(=O)N/N=C(\C)c3ccccn3)cc2)cc1	?	–	–	?	–	·	·	·
COc1ccccc1NC(=S)NN=C(C)c1ccccn1	1.16µM	–	–	–	–	–	–	2.59µM
C/C(=N/NC(=O)c1ccc(C(C)(C)C)cc1)c1ccccn1	5.8µM	–	–	?	–	10.7µM	?	?
CCCc1ccc(S(=O)(=O)NCc2nnc(SC)n2C)cc1	–	–	–	–	–	·	·	·
C/C(=N\NC(=O)c1cc(-c2cccs2)nc2ccccc12)c1ccccn1	2.06µM	–	–	?	–	9.53µM	–	1.84µM
CCN1/C(=C/c2cc[n+](CCCS(=O)(=O)[O-])c3ccccc23)Sc2ccccc21	–	–	–	–	–	·	·	·
C=CC[n+]1ccc(/C=C2\C=Cc3cc(C)ccc3N2CC)c2ccccc21	7.31µM	–	?	?	–	?	?	·
COc1cc2sc3ccc(C#Cc4ccc(N)cc4)cc3c(=O)c2cc1OC	4.61µM	–	–	–	–	–	?	2.31µM
Cc1cccc(N2CCN(C(=O)C3CCC(CNS(=O)(=O)c4ccc(Br)s4)CC3)CC2)c1C (centres undefined)	?	·	·	–	–	·	·	·
Cc1cccc(N2CCN(C(=O)C3CCC(CNS(=O)(=O)c4cccs4)CC3)CC2)c1C (centres undefined)	6.51µM	–	–	–	–	–	–	8.2µM
O=C(O/N=C\c1ccc(N2CCCCC2)c([N+](=O)[O-])c1)c1cccc(Cl)c1	–	–	?	–	–	·	·	·
CO/N=C/c1ccc(N2CCN(C(=O)c3ccc(Cl)cc3Cl)CC2)c([N+](=O)[O-])c1	6.51µM	–	–	–	–	–	–	11.6µM
Cn1nnc2cc(NC(=O)Nc3cccc(C(F)(F)F)c3)ccc21	–	–	–	–	–	·	·	·
Cc1sc2ncnc(NCC3COc4ccccc4O3)c2c1C (centres undefined)	?	–	–	–	–	·	·	·
c1ccc(-c2csc3ncnc(NCC4COc5ccccc5O4)c23)cc1 (centres undefined)	1.64µM	–	?	–	–	–	–	1.16µM
COc1cc(OC)cc(-c2cc3nc(C)c(CCC(=O)Nc4ccc(C(C)=O)cc4)c(C)n3n2)c1	4.11µM	·	·	–	–	–	–	18.4µM
SMILES	Nrf2 inh	Rango release inh	Rango-impB inh	A549 tox-1	Nrf2 ARE act	FLuc enzyme inh	A549 tox-2	ARE-Fluc inh
COc1cc(OC)cc(-c2cc3nc(C)c(CCC(=O)NCc4ccccc4)c(C)n3n2)c1	7.31µM	–	–	–	–	–	–	7.31µM
Cc1nc2ccccc2n1Cc1ccc(Br)cc1	?	–	–	–	–	–	–	?
Cc1nc2ccccc2n1Cc1ccccc1Br	–	–	–	–	–[9.22 µM]	·	·	·
CCS(=O)(=O)N1CCCC(C(=O)c2ccc(OC)cc2C)C1 (centres undefined)	–	–	–	–	–	·	·	·
COc1ccc(C(=O)C2CCCN(S(=O)(=O)c3ccc(C(C)=O)cc3)C2)c(C)c1 (centres undefined)	8.2µM	–	–	–	–	–	–	·
CCOC(=O)C1CCCN(S(=O)(=O)c2ccc(S(=O)(=O)N3CCCC3)cc2)C1 (centres undefined)	8.2µM	–	–	–	–	–	–	?
CCCCCC1CCC(C(=O)NCCN2CCOCC2)CC1 (centres undefined)	–	–	–	–	–	·	·	·
COc1cccc2c1C(=O)c1c(O)c3c(c(O)c1C2=O)CC(O)(C(=O)CO)CC3OC1CC(N(C)C)C(O)C(C)O1 (centres undefined)	0.461µM	–	58µM	?	–	?	?	0.259µM
Cc1c(C(=O)NCc2ccccc2)sc(=O)n1Cc1ccccc1F	·	·	·	·	–	·	·	·
O=C(c1cnc(N2CCN(c3ncccn3)CC2)c2ccccc12)N1CCN(c2ccccn2)CC1	?	–	–	–	–	·	·	·
O=C(Nc1c(F)cccc1F)c1cnc(N2CCN(c3ccccn3)CC2)c2ccccc12	9.2µM	–	–	?	–	–	–	?
Oc1c(C(c2ccccc2Cl)N2CCN(Cc3ccccc3)CC2)sc2nc(-c3ccco3)nn12 (centres undefined)	·	·	·	–	–	·	·	·
Cc1cccc(C)c1OCc1cc(C(=O)NC2CCC2)no1	–	–	–	–	–	·	·	·
O=C(c1cc(COc2ccc3ncccc3c2)on1)N1CCC(O)CC1	8.2µM	–	–	–	–	–	–	–
O=C(NC1CCCCCCC1)c1cc(COc2ccc3ncccc3c2)on1	3.26µM	–	–	?	–	–	–	2.91µM
Cc1cccnc1CN1CCN(C(=O)c2cc(COc3ccc4ncccc4c3)on2)CC1	4.11µM	–	–	–	–	–	–	?
CCC(O)C1CCN(C(=O)c2cc(COc3ccc4ncccc4c3)on2)CC1 (centres undefined)	1.84µM	–	–	?	–	–	–	1.46µM
COc1ccc(N2C(=O)CS(=O)(=O)C23C(=O)N(Cc2ccc(F)cc2)c2ccc(C)cc23)cc1 (centres undefined)	–	·	·	–	–	·	·	·
Cc1cc(CN(C)C(=O)c2cc(COc3ccc4ncccc4c3)on2)on1	4.61µM	–	–	–	–	–	–	5.17µM
COc1ccccc1OC(C)C(=O)Nc1nc(-c2ccc(S(=O)(=O)N3CCOCC3)cc2)cs1 (centres undefined)	–	–	–	?	–	·	·	·
